Reference: patent publication US20250345446A1 (Draupnir Bio ApS, priority 2022, published 2025)

By UniProt entry, the sequences of proteins in these tests, tags left out. Chains listed by the source or under a name are the forms on record and can include a tag or linker. Residues count along the entry.
UniProt P01375, 77-233 limits assumed: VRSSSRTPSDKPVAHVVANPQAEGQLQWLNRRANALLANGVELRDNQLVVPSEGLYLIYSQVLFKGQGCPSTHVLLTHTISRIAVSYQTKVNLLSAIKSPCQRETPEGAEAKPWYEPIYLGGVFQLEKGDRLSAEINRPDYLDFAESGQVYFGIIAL
UniProt Q99523, 34-756 with tags or gaps V650M: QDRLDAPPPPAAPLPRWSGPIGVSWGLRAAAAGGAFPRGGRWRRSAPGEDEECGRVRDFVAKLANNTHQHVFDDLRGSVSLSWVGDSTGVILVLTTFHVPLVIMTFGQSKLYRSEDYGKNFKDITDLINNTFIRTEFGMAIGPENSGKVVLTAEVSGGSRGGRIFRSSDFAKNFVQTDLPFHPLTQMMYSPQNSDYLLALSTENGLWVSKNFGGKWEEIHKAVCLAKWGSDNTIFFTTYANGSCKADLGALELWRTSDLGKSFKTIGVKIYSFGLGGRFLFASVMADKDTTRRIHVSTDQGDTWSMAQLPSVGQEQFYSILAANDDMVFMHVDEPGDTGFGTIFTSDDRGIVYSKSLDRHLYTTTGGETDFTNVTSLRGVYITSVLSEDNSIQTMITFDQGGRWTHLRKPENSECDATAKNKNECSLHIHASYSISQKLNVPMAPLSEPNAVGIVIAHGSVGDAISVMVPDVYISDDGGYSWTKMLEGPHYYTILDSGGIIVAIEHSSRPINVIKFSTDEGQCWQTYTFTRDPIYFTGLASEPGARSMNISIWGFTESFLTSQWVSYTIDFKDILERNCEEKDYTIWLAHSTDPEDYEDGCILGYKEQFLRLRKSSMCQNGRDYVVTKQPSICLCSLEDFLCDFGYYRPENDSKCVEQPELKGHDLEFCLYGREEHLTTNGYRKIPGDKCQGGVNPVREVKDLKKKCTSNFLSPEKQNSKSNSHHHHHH

Experiments:
TNFa-6His = TNFa-6His (Homo sapiens, UniProt P01375); experiment: MST binding to TNFa-6his; conditions: read-out: KD (score), Kd of TNFalpha binding, Table 8, NTA labeled TNFa-6His (100 nM)
[1] = target: soluble ectodomain of sortilin-6his (Homo sapiens, UniProt Q99523, V650M); experiment: MST binding to soluble ectodomain of sortilin-6his; conditions: read-out: KD score, binding to sortilin (Kd), Table 4, small molecule bifunctional compounds
HEK293/sortilin cells = experiment: Remaining TNFalpha in conditioned media (ELISA); conditions: after 72 h, 20 nM TNFalpha; added TNFalpha (100%) subtracted remaining TNFalpha (%)

Kd (TNFa-6His): > 2000 nM
Kd [1]: > 250 nM
SMILES: C[C@@H]1CN(c2ncc(-c3ccc4c(n3)N(Cc3cccnc3C#N)C(C)(C)C4=O)cn2)CCN1C(=O)COCCCCCCCCNC(=O)COc1cccc(Oc2ccc(C(=O)N[C@@H](CCC(C)(C)C)C(=O)O)cn2)c1
Maximum clearance rates of TNFalpha from conditioned media (HEK293/sortilin cells): 39.4%
